Test results published in patent publication US20250332276A1, “Inhibitors of Molluscum Contagiosum Infection and Methods Using the Same” (priority 2022, published 2025).

Assay: 3-Day Cell Viability Assay (cytotoxicity)
Settings: read-out: CC50 (cytotoxicity)

## CCC(C(=O)Nc1sc(C(N)=O)c(C)c1C(=O)OC)c1ccc(F)cc1 (stereo not shown)
  CC50: 103 µM
